Source: ChEMBL document CHEMBL5500396, “Discovery, Multiparametric Optimization, and Solid-State Driven Identification of CHF-6550, a Novel Soft Dual Pharmacology Muscarinic Antagonist and β2 Agonist (MABA) for the Inhaled Treatment of Respiratory Diseases” (J Med Chem, 2024)

The compounds below were run against Muscarinic acetylcholine receptor M3 (Homo sapiens, UniProt P20309). Conditions: not given.

Row | SMILES | pKi
1 | O=C(NCCCOc1cccc([C@](O)(C(=O)O[C@H]2CCCN(Cc3ccccc3)C2)c2ccccc2)c1)c1ccc(CNC[C@H](O)c2ccc(O)c3[nH]c(=O)ccc23)cc1.O=CO | < 7.3
2 | O=C(NCCCOc1cccc([C@](O)(C(=O)OC2CCN(Cc3ccccc3)CC2)c2ccccc2)c1)c1ccc(CNC[C@H](O)c2ccc(O)c3[nH]c(=O)ccc23)cc1 | 9
3 | Cc1cc(C(=O)NCCCOc2cccc([C@](O)(C(=O)O[C@@H]3CCCN(C)C3)c3ccccc3)c2)c(C)cc1CNC[C@H](O)c1ccc(O)c2[nH]c(=O)ccc12 | 8.9
4 | COc1cc(C(=O)NCCCOc2cccc([C@](O)(C(=O)O[C@@H]3CCCN(C)C3)c3ccccc3)c2)c(OC)cc1CNC[C@H](O)c1ccc(O)c2[nH]c(=O)ccc12 | 9.5
5 | CN1CCC[C@H](OC(=O)[C@](O)(c2ccccc2)c2cccc(OCCCNC(=O)c3ccc(CNC[C@H](O)c4ccc(O)c5[nH]c(=O)ccc45)cc3)c2)C1.O=CO.O=CO | 8.3
6 | COc1cc(CNC[C@H](O)c2ccc(O)c3[nH]c(=O)ccc23)c(Cl)cc1C(=O)NCCCOc1cccc([C@](O)(C(=O)O[C@@H]2CCCN(C)C2)c2ccccc2)c1 | 9.8
7 | CN1CCC[C@@H](OC(=O)[C@](O)(c2ccccc2)c2cccc(OCCCNC(=O)c3ccc(CNC[C@H](O)c4ccc(O)c5[nH]c(=O)ccc45)c(F)c3)c2)C1.O=CO | 9.1
8 | O=C(NCCCOc1cccc([C@](O)(C(=O)OC[C@H]2CCN(Cc3ccccc3)C2)c2ccccc2)c1)c1ccc(CNC[C@H](O)c2ccc(O)c3[nH]c(=O)ccc23)cc1 | 9.4
9 | CN1CCC[C@@H](OC(=O)[C@](O)(c2ccccc2)c2cccc(OCCCNC(=O)c3cnc(CNC[C@H](O)c4ccc(O)c5[nH]c(=O)ccc45)nc3)c2)C1.O=CO | 8.7
10 | O=C(NCCCOc1cccc([C@](O)(C(=O)O[C@@H]2CCN(Cc3ccccc3)C2)c2ccccc2)c1)c1ccc(CNC[C@H](O)c2ccc(O)c3[nH]c(=O)ccc23)cc1 | 9.1
11 | O=C(NCCCOc1cccc([C@](O)(C(=O)OC[C@@H]2CCN(Cc3ccccc3)C2)c2ccccc2)c1)c1ccc(CNC[C@H](O)c2ccc(O)c3[nH]c(=O)ccc23)cc1 | 9.4
12 | O=C(NCCCOc1cccc([C@](O)(C(=O)O[C@@H]2CCCN(Cc3ccccc3)C2)c2ccccc2)c1)c1ccc(CNC[C@H](O)c2ccc(O)c3[nH]c(=O)ccc23)cc1.O=CO | < 7.4
13 | CN1CCC[C@@H](OC(=O)[C@](O)(c2ccccc2)c2cccc(OCCCNC(=O)c3ccc(CNC[C@H](O)c4ccc(O)c5[nH]c(=O)ccc45)nc3)c2)C1.O=CO.O=CO | 9.1
14 | CN1CCC[C@@H](OC(=O)[C@](O)(c2ccccc2)c2cccc(OCCCNC(=O)c3cccc(CNC[C@H](O)c4ccc(O)c5[nH]c(=O)ccc45)c3)c2)C1 | 9.4
15 | COc1cc(C(=O)NCCCOc2cccc([C@](O)(C(=O)O[C@@H]3CCCN(C)C3)c3ccccc3)c2)c(F)cc1CNC[C@H](O)c1ccc(O)c2[nH]c(=O)ccc12 | 9.8
16 | O=C(NCCCOc1cccc([C@](O)(C(=O)O[C@H]2CCN(Cc3ccccc3)C2)c2ccccc2)c1)c1ccc(CNC[C@H](O)c2ccc(O)c3[nH]c(=O)ccc23)cc1 | 8.5
17 | CN1CCC[C@@H](OC(=O)[C@](O)(c2ccccc2)c2cccc(OCCCNC(=O)c3ccc(CNC[C@H](O)c4ccc(O)c5[nH]c(=O)ccc45)cc3)c2)C1 | 9.3
18 | COc1cc(C(=O)NCCCOc2cccc([C@](O)(C(=O)O[C@@H]3CCCN(C)C3)c3ccccc3)c2)ccc1CNC[C@H](O)c1ccc(O)c2[nH]c(=O)ccc12 | 9.4
19 | COc1cc(C(=O)NCCCOc2cccc([C@](O)(C(=O)O[C@@H]3CCCN(C)C3)c3ccccc3)c2)c(Cl)cc1CNC[C@H](O)c1ccc(O)c2[nH]c(=O)ccc12 | 9.6

These compounds were tested against Muscarinic acetylcholine receptor M3 (Cavia porcellus, UniProt Q8VH26) (assay: Antagonist activity at M3 receptor in male albino Dunkin-Hartley guinea pig trachea assessed as inhibition of carbachol-induced smooth muscle contraction in presence of propranolol). Conditions: strain albino Dunkin-Hartley.

Row | SMILES | pIC50
20 | CN1CCC[C@@H](OC(=O)[C@](O)(c2ccccc2)c2cccc(OCCCNC(=O)c3ccc(CNC[C@H](O)c4ccc(O)c5[nH]c(=O)ccc45)cc3)c2)C1 | 9.2
